# Ab-14 heavy chain CDR variants: yeast mating affinities

From the AlphaSeq antibody data of Li et al. 2023 (doi:10.1038/s41467-023-39022-2), copy in the FLAb collection.

All variants were tested on one target, the spike HR2 peptide PDVDLGDISGINAS (SARS-CoV-2).

Parent scFv Ab-14: VH joined to VL by a 15-residue (Gly4Ser)3 linker. Changes lie in the heavy chain CDRs alone.
VH: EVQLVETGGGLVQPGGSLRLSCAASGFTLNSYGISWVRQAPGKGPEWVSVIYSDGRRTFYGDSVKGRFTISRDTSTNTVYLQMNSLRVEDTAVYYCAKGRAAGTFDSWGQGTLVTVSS
VL: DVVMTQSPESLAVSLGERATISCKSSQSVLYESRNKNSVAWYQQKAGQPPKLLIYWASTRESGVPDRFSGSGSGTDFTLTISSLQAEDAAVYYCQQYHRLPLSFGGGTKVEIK

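Phage display of a naive human antibody library on the peptide gave the parent. These sequences belong to a second round, designed from the earlier measurements on random variants of the parent. Group labels follow the data file (Ctrl: baseline library sampled from a position-specific scoring matrix, with some repeated check sequences; Rand: our label for a block that the file lists under HC and that is probably the random mutants of the ten best first-round binders; GP: Gaussian process model; GPLM: also part of the Gaussian process libraries; HC: hill climbing; Gen: genetic algorithm; Gibbs: Gibbs sampling; a sequence that several methods proposed may carry one label only). The scFvs were displayed on barcoded MATa yeast, the peptide on MATalpha yeast. Pairs that bind mate more often; barcode pairs of the diploids are counted by sequencing. A regression on co-assayed BCL2-family reference pairs converts the normalised counts of each replicate to an apparent Kd. Mating was done six times.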

Positions count from residue 1 of the parent VH; T28D puts D in place of T. Variants here have at most six changes. Numbers give log10(Kd / nM), so 0 is 1 nM and 3 is 1 µM. Smaller is tighter. Replicates are averaged; those with no signal do not enter the mean. An entry "nd" has no value in the source: the pair was not observed among the diploids in that replicate. This suggests poor binding but is not conclusive. Entries are sorted by rising average, undetected variants last. Nonspecific signal, from three strains lacking the peptide, appeared in 1% of pairings of all heavy chain designs, centred on 2.08 (5% of these signals below 0.84); values are not corrected for it. For each scFv, signals with the empty controls are counted beside the result.

The variant T28D+A101C+D106K+S107V [Ctrl] gave nd, nd, -0.33, nd, nd, nd (controls 0 of 18). The variant T28E+S31E+A101V [GP_Gen] gave 0.06, -0.25, -0.16, -0.23, -0.16, -0.24 (mean -0.17; controls 0 of 18). The variant T28E+R100E+S107Q [GPLM_Gibbs] showed 0.62, -0.33, nd, -0.31, nd, nd (mean -0.01; controls 0 of 18). For T28S+G61S+S63R+R100I+A101T [GP_Gibbs], the assay gave 0.07, -0.02, -0.12, 0.06, 0.09, 0.34 (mean 0.07; controls 0 of 18). The variant R100S+A101V+S107T [GPLM_Gen] gave 0.43, 0.46, -0.13, -0.05, -0.14, 0.27 (mean 0.14; controls 0 of 18).

The variant T28S+S31E+G61A+A101H [GPLM_Gen] gave 0.14, 0.35, 0.12, 0.15, -0.11, 0.49 (mean 0.19; controls 1 of 18). The variant T28S+G61A+R100E+S107T [GPLM_Gen] gave 0.30, 0.25, 0.14, 0.25, 0.15, 0.18 (mean 0.21; controls 2 of 18). For T28S+G61S+R100E+S107K [GPLM_Gen], the assay gave 0.16, 0.38, 0.15, 0.27, 0.31, 0.40 (mean 0.28; controls 0 of 18). The variant T28S+G61K+S63N+R100E+A101T [GP_Gibbs] showed 0.43, 0.56, 0.02, 0.20, 0.26, 0.48 (mean 0.33; controls 0 of 18). The variant S31Q+F59Q+G61I [GP_HC] gave nd, nd, nd, 0.61, 0.04, nd (mean 0.33; controls 0 of 18).

The variant G26K+T28D+F59A+A101T [GP_Gen] showed 0.59, 0.52, -0.18, 0.32, 0.58, 0.24 (mean 0.34; controls 0 of 18). The variant T28E+G61A+R100K [GPLM_Gen] gave 0.46, 0.55, 0.37, 0.34, 0.28, 0.18 (mean 0.36; controls 0 of 18). For S31E+A101E+D106K+S107I [GP_HC], the assay gave 0.43, 0.18, nd, nd, -0.13, 1.12 (mean 0.40; controls 0 of 18). The variant T28E+S31D+G61V+A101T [GPLM_Gibbs] gave 0.24, 0.54, 0.40, 0.65, 1.16, 0.62 (mean 0.60; controls 0 of 18). For T28K+A101Q [GPLM_Gen], the assay gave 0.36, 0.76, 0.53, 0.44, 1.39, 0.46 (mean 0.66; controls 0 of 18).

With T28N+A101Q [GPLM_Gen] the result was 0.89, 0.53, 0.99, 0.18, 0.42, 1.05 (mean 0.68; controls 0 of 18). With S31D+I34V+S63Q+S107V [Ctrl] the result was nd, nd, 0.67, 0.93, 1.27, 0.18 (mean 0.76; controls 0 of 18). The variant T28E+S31M+R100Q+S107V [GP_Gen] showed 0.70, 0.35, 0.31, 1.67, 0.70, 1.02 (mean 0.79; controls 1 of 18). The variant S53A+D62N [Ctrl] showed 0.52, 2.39, 0.49, 0.76, 0.40, 0.61 (mean 0.86; controls 0 of 18). For F59M+G61H+R100Q+A101L [GP_HC], the assay gave nd, nd, 1.21, 0.92, 0.99, nd (mean 1.04; controls 0 of 18).

The variant T28Q+G61A+S63D+A101T [GP_Gen] showed nd, 1.35, nd, nd, 0.90, nd (mean 1.12; controls 0 of 18). The variant A101V+S107L [GPLM_Gen] gave 1.04, 1.04, 1.54, 1.26, nd, nd (mean 1.22; controls 0 of 18). With S31Q+F59Q+G61S [Ctrl+GPLM_HC] the result was 2.25, 1.77, 1.31, 1.61, 1.00, 1.40; 1.13, 0.70, 1.22, 0.73, 1.15, 0.77 (mean 1.25; controls 0 of 36). The variant N30E+G61D+R100K+A101L [GP_HC] showed 1.01, 1.13, 1.59, 1.91, 1.33, 1.30 (mean 1.38; controls 0 of 18). With T28E+G61I+A101Q [GPLM_Gibbs] the result was 1.62, 0.79, nd, 1.37, 1.61, 1.66 (mean 1.41; controls 0 of 18).

The variant S31E+G61S+S63A+A101S [GP_HC] gave nd, 2.85, 0.98, 2.15, 0.71, 1.09 (mean 1.56; controls 0 of 18). For G61I+R100Q+A101L [GPLM_Gen], the assay gave 1.36, 1.87, 1.57, 1.81, nd, nd (mean 1.65; controls 0 of 18). The variant G61K+S63K [Ctrl] gave nd, nd, 1.21, nd, 2.91, nd (mean 2.06; controls 0 of 18). The variant S31E+R56L+A101G [Ctrl] showed 2.85, 1.66, 1.49, 1.80, 1.91, 2.86 (mean 2.10; controls 0 of 18). With F27K+T28S+A101T [GPLM_Gen] the result was nd, nd, nd, 2.27, nd, nd (controls 0 of 18).

For R56K+R100Q+S107N [GP_Gibbs], the assay gave 2.64, nd, 2.02, nd, nd, nd (mean 2.33; controls 0 of 18). With A102K+G103A+T104P+F105A+D106I [Ctrl] the result was nd, 3.46, nd, nd, nd, nd (controls 1 of 18). For G61H+S63E [Ctrl], the assay gave nd, nd, nd, nd, nd, 3.84 (controls 0 of 18). The variant T28Q+S31D+F59Q+G61I+S63H+R100K [Rand] showed nd, nd, nd, nd, nd, nd (controls 0 of 18). The variant F27A+F59A+A102C [Ctrl] gave nd, nd, nd, nd, nd, nd (controls 1 of 18).

The variant S31D+G55D+G103I+D106I [Rand] gave nd, nd, nd, nd, nd, nd (controls 0 of 18). For S53A+D106C+S107K [GP_HC], the assay gave nd, nd, nd, nd, nd, nd (controls 0 of 18). The variant T28A+G99T [Ctrl] showed nd, nd, nd, nd, nd, nd (controls 1 of 18). The variant S31D+G61D+D106I [GPLM_HC] showed nd, nd, nd, nd, nd, nd (controls 0 of 18). The variant G26A+T28P+N30D+F105A+D106L [Rand] showed nd, nd, nd, nd, nd, nd (controls 0 of 18).

The variant S31E+G103V+D106W+S107Q [GPLM_HC] gave nd, nd, nd, nd, nd, nd (controls 0 of 18). With S63D+A101L+F105A [Ctrl] the result was nd, nd, nd, nd, nd, nd (controls 1 of 18). The variant S53A+F105N+S107T [GP_HC] gave nd, nd, nd, nd, nd, nd (controls 0 of 18). The variant N30E+A101L [Ctrl] showed nd, nd, nd, nd, nd, nd (controls 0 of 18).

For reference, 4 entries of the list once more:

| changes | group | log10 Kd (nM) by replicate | mean, log10 nM | empty controls |
|---|---|---|---|---|
| F27A+F59A+A102C | Ctrl | nd, nd, nd, nd, nd, nd | nd | 1/18 |
| R56K+R100Q+S107N | GP_Gibbs | 2.64, nd, 2.02, nd, nd, nd | 2.33 | 0/18 |
| T28E+G61I+A101Q | GPLM_Gibbs | 1.62, 0.79, nd, 1.37, 1.61, 1.66 | 1.41 | 0/18 |
| T28S+G61K+S63N+R100E+A101T | GP_Gibbs | 0.43, 0.56, 0.02, 0.20, 0.26, 0.48 | 0.33 | 0/18 |

Where one sequence has several entries in the source, the replicates are listed entry by entry, parted by semicolons. Values of this round are not directly comparable with the first-round values of the same sequences. The parent sequence was in this pool as ten entries: three were never detected, three once, and four in most replicates, with averages from 0.34 to 2.37. The authors' rule: three or more of the six replicates give a measured affinity, fewer mean a poor binder.